From US20140105970A1, “ADJUVANT AND ANTIGEN PARTICLE FORMULATION” (published 2014)

What was measured:
[1] = colour change from colorless to coloured form; cited from earlier work
C57Bl/6 mice = assay: Intra-dermal injection of free epitopes with adjuvants, interferon gamma Elispot of harvested T-Cells; details: free epitopes injected intra-dermally (tail) with adjuvants CpG and MPL; T-Cells harvested 14 days post inoculation, challenged in-vitro with same epitopes
mice = assay: Effect of adjuvant placement (sphere or carrier solution) on immune response of immunized mice (FIG. 7, FIG. 8); details: 10 micron OVA-loaded microspheres with CpG

Compound	pH Change (pH range of colour change) [1]	further results
CCOC(=O)C(c1ccc(C)cc1C)c1ccc(C)cc1C	8.4-9.6 pH	–
Cc1cc(O)c(C(C)C)cc1C1(c2cc(C(C)C)c(O)cc2C)OC(=O)c2ccccc21	8.8-10.5 pH	–
O=C1OC(c2ccc(O)cc2)(c2ccc(O)cc2)c2ccccc21	8.2-10.0 pH	–
O=[N+]([O-])c1ccc(O)c([N+](=O)[O-])c1	2.8-4.0 pH	–
O=[N+]([O-])c1ccc(O)cc1	5.4-6.6 pH	–
Ethyl Red	4.0-5.8 pH	–
Quinaldine Red	1.0-2.2 pH	–
RGYVYQGL	–	immune response (interferon gamma Elispot) (C57Bl/6 mice): no measureable immune response
SIINFEKL	–	immune response (interferon gamma Elispot) (C57Bl/6 mice): no measureable immune response
monophosphoryl lipid A	–	immune response with MPLA included in the spheres themselves (mice; MPLA 10 micrograms in 2 milligrams of microparticles): does not show a dramatic improvement; immune response with MPLA in the carrier solution versus inside the spheres (mice; MPLA 10 micrograms per mouse, p=0.0002): improvement in the immune response
o-Cresolpthalein	8.2-9.8 pH	–
